Literature values, collected in publication PMC8920107 (ADMET & DMPK, 2020).

Test system: AGP
Conditions: calibration drugs, equilibrium dialysis literature % binding; cited from earlier work

O=C(O)Cc1ccccc1Nc1c(Cl)cccc1Cl [Diclofenac]
% AGP: 60%
